Where “and” joins values, the source holds several entries; their conditions need not be identical. Equal values may be shown once.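 1) Cells in 96-well plates. 2) Compound, 48 h, 5 concentrations. 3) Linear interpolation between surrounding doses. 4) Unreached endpoint = highest concentration. The concentration for 50% growth inhibition is given as GI50. TGI is the concentration that stops growth completely.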
Key:
Test in all cases: DTP human tumour cell line panel, 48 h
MALME-3M melanoma = test system: MALME-3M melanoma
NCI/ADR-RES ovarian = test system: NCI/ADR-RES ovarian
NCI-H226 lung = test system: NCI-H226 lung
TK-10 renal = test system: TK-10 renal
MDA-MB-435 = test system: MDA-MB-435
SR leukemia = test system: SR leukemia
COLO 205 colon = test system: COLO 205 colon
OVCAR-5 ovarian = test system: OVCAR-5 ovarian
HL-60(TB) leukemia = test system: HL-60(TB) leukemia
M14 melanoma = test system: M14 melanoma
K-562 leukemia = test system: K-562 leukemia
IGROV1 ovarian = test system: IGROV1 ovarian
SF-539 CNS = test system: SF-539 CNS
LOX IMVI melanoma = test system: LOX IMVI melanoma
MOLT-4 leukemia = test system: MOLT-4 leukemia
NCI-H23 lung = test system: NCI-H23 lung
HCC-2998 colon = test system: HCC-2998 colon
UO-31 renal = test system: UO-31 renal
SK-MEL-5 melanoma = test system: SK-MEL-5 melanoma
HS 578T breast = test system: HS 578T breast
HOP-62 NSCLC = test system: HOP-62 NSCLC
T-47D breast = test system: T-47D breast
RPMI-8226 leukemia = test system: RPMI-8226 leukemia
MCF7 breast = test system: MCF7 breast
SW-620 colon = test system: SW-620 colon
EKVX NSCLC = test system: EKVX NSCLC
PC-3 prostate = test system: PC-3 prostate
NCI-H322M lung = test system: NCI-H322M lung

SMILES: CC1=C[C@H]2O[C@@H]3C[C@H]4OC(=O)/C=C\C=C\[C@H]([C@@H](C)O)OCC[C@@H](C)[C@H](O)C(=O)OC[C@@]2(CC1)[C@]4(C)[C@]31CO1
- GI50 (MALME-3M melanoma): 2.36 nM and < 1.43 nM
- TGI (MALME-3M melanoma): 7.29 nM and 1.5 nM
- GI50 (NCI/ADR-RES ovarian): 4.28 nM
- TGI (NCI/ADR-RES ovarian): 22.7 nM
- GI50 (NCI-H226 lung): 2.74 nM and < 1.43 nM
- TGI (NCI-H226 lung): 7.61 nM and 6.36 nM
- GI50 (TK-10 renal): 3.24 nM
- TGI (TK-10 renal): 9.78 nM
- GI50 (MDA-MB-435): 3.67 nM and 1.92 nM
- TGI (MDA-MB-435): 4.35 nM
- GI50 (SR leukemia): 3.56 nM and < 1.43 nM
- TGI (SR leukemia): 5.32 nM
- GI50 (COLO 205 colon): 3.31 nM and 2.49 nM
- TGI (COLO 205 colon): 5.71 nM
- GI50 (OVCAR-5 ovarian): 2.87 nM
- TGI (OVCAR-5 ovarian): 8.72 nM
- GI50 (HL-60(TB) leukemia): 2.91 nM and < 1.43 nM
- TGI (HL-60(TB) leukemia): 8.6 nM and 2.6 nM
- GI50 (M14 melanoma): 4.28 nM and 1.45 nM
- TGI (M14 melanoma): 3.81 nM
- GI50 (K-562 leukemia): 3.55 nM and < 1.43 nM
- TGI (K-562 leukemia): 7.47 nM
- GI50 (IGROV1 ovarian): 3.58 nM and 1.66 nM
- TGI (IGROV1 ovarian): 9.22 nM
- GI50 (SF-539 CNS): 9.66 nM and 2.05 nM
- TGI (SF-539 CNS): 6.12 nM
- GI50 (LOX IMVI melanoma): 2.66 nM and < 1.43 nM
- TGI (LOX IMVI melanoma): 8.61 nM and 4.51 nM
- GI50 (MOLT-4 leukemia): 3.84 nM and < 1.43 nM
- TGI (MOLT-4 leukemia): 1.43 nM
- GI50 (NCI-H23 lung): 2.74 nM
- TGI (NCI-H23 lung): 9.56 nM
- GI50 (HCC-2998 colon): 3.35 nM and < 1.43 nM
- TGI (HCC-2998 colon): 4.64 nM
- GI50 (UO-31 renal): 2.4 nM
- TGI (UO-31 renal): 8.3 nM
- GI50 (SK-MEL-5 melanoma): 2.11 nM and < 1.43 nM
- TGI (SK-MEL-5 melanoma): 5.11 nM and 3.07 nM
- GI50 (HS 578T breast): 2.59 nM
- TGI (HS 578T breast): 8.37 nM
- GI50 (HOP-62 NSCLC): 4.94 nM and 1.58 nM
- TGI (HOP-62 NSCLC): 6.28 nM
- GI50 (T-47D breast): 2.6 nM
- TGI (T-47D breast): 8.48 nM
- GI50 (RPMI-8226 leukemia): 3.87 nM and < 1.43 nM
- TGI (RPMI-8226 leukemia): 6.24 nM
- GI50 (MCF7 breast): 3.6 nM and < 1.43 nM
- TGI (MCF7 breast): 10.9 nM
- GI50 (SW-620 colon): 4.98 nM and 2.53 nM
- TGI (SW-620 colon): 13.1 nM
- GI50 (EKVX NSCLC): 1.94 nM
- TGI (EKVX NSCLC): 8.44 nM
- GI50 (PC-3 prostate): 2.64 nM
- TGI (PC-3 prostate): 9.7 nM
- GI50 (NCI-H322M lung): 3.48 nM
- TGI (NCI-H322M lung): 12.8 nM

— PubChem BioAssay (NCI)
